{"sequences": {"note": "By UniProt entry, the sequences of proteins in these tests, tags left out. Where a name states a change or a piece, a line headed by the entry shows the natural chain unless it says otherwise.", "UniProt Q9HBX9": "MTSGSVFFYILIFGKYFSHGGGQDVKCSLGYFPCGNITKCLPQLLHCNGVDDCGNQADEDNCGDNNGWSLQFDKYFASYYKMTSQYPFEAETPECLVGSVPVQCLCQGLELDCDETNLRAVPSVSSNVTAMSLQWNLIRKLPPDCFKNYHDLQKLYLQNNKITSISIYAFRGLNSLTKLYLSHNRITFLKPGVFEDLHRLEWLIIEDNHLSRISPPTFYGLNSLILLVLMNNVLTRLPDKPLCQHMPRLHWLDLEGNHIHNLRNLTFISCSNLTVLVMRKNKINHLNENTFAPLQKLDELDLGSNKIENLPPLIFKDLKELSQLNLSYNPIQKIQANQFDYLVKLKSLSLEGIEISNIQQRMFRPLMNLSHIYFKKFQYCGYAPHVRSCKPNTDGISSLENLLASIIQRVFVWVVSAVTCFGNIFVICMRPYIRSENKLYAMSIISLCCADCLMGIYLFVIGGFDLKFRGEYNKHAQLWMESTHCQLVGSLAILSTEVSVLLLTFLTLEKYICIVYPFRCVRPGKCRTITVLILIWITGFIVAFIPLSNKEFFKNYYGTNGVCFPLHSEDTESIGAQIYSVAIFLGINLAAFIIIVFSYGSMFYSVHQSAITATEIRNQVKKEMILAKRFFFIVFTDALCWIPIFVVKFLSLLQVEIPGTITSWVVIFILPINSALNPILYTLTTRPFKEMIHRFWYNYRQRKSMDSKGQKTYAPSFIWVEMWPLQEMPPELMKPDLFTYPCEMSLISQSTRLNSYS"}, "source": "PubChem BioAssay AID2676", "about": "(National Center for Advancing Translational Sciences (NCATS), 2010)", "note": "The entries are a selection whose mix differs from that of the whole data set. The source made the active and inactive calls. The call rests on the fitted dose curve; in most records, active means well fitted activation curve with a large enough effect; inconclusive means small, poorly fitted or top-dose-only effect; inactive means flat fitted curve, though single readings scatter. On the % scale 0 is the no-effect control and ±100 the full control effect.", "data": [{"target": "Relaxin receptor 1 (Homo sapiens) (UniProt Q9HBX9)", "assay": "qHTS Assay for Agonists of the Relaxin Receptor RXFP1; further: nearly all actives have a fitted effect of over 60% in size", "conditions": "HEK293T-RXFP1 cAMP TR-FRET, 30 min, percent of porcine relaxin response, buffer zero; at 57.5 µM (top of the series)", "from_the_text": "NIH Chemical Genomics Center [NCGC] NIH Molecular Libraries Probe Production Centers Network [MLPCN] MLPCN Grant: R03 MH085705-01A1 Assay Submitter (PI): Alexander Agoulnik NCGC Assay Overview: The relaxin hormone is involved in the variety of biological functions in normal tissues and diseases. The role of relaxin is well-established in female reproduction and parturition, mammary gland and endometrial development, maintenance of myometrial quiescence during pregnancy. Relaxin signaling through its G protein-coupled receptor (GPCR) RXFP1 results in ECM remodeling through regulation of collagen deposition, cell invasiveness, proliferation and overall tissue homeostasis. […] Recombinant human relaxin (rhRlx) is currently being tested in clinical trials as a protective agent in congestive heart failure, in treating severe preeclampsia, and as an anti-fibrotic agent in systemic sclerosis. Upon relaxin binding RXFP1 activation leads to the activation of adenylate cyclase (AC) via Gs. cAMP will activate PKA, which phosphorylates many signaling proteins. Thus, detection of cAMP increase is an easy and reliable indication of relaxin receptor activation. To screen for agonists of the relaxin receptor, a HEK293T cell line stably transfected with RXFP1 was used. RXFP1 activation was assayed by changes in cAMP levels as detected with a time-resolved fluorescence energy transfer (TR-FRET) cAMP detection kit.\nNCGC Assay Protocol Summary: This is a cell-based assay for cAMP second messenger response to screen for agonists of the RXFP1 receptor. The assay was conducted in the presence of a PDE4 inhibitor (Ro 20174). The cells were lysed and the cAMP levels were measured with a TR-FRET cAMP kit. Presence of cAMP in the cell lysate disrupts binding between the cryptate-labeled anti-cAMP and d2-labeled cAMP pair, leading to a decrease in the TR-FRET signal. Data were normalized to the controls for basal activity (buffer only) and 100% activity (29 nM porcine relaxin). The EC50 values were determined from concentration-response data modeled with the standard Hill equation 1536-well assay protocol for the HEK293 RXFP1 cAMP assay: (1) Add 3 ul HEK293 RXFP1 cell culture. 2000 cells/well in DMEM/F12, 10% FBS, 1x Pen/Strep (dispensed offline with MultiDrop Combi). (2) Incubate 16-24 hr at 37C, 5% CO2. (3) Add 1 ul 400uM Ro20174 in DPBS, 0.05% BSA, 0.005% Tween 20. (3) Add 23 nl compounds in DMSO solution. Final concentration was 0.5 - 58 uM. (4) Incubate 30 min at 37C, 5% CO2. (5) Add 1 ul cAMP-d2 in lysis buffer (HTRF cAMP HiRange kit, CisBio). (6) Add 1 ul anti-cAMP antibody-cryptate in lysis buffer (HTRF cAMP HiRange kit, CisBio). (7) Incubate 30 min at room temperature. (6) Detect the assay plate in a ViewLux plate reader (PerkinElmer) with Ex=320 nm, Em1=615 nm and Em2=665 nm. Keywords: relaxin, RXFP1, RXFP2, G-protein coupled receptor, cAMP, agonist, high throughput screening, MLSMR, MLSCN, NIH Roadmap, qHTS and NCGC", "values": [{"molecule": "CS(=O)(=O)c1ccc(Cl)c(NC(=O)COC(=O)C(O)(c2ccccc2)c2ccccc2)c1", "activation": "inactive: 0.289%"}, {"molecule": "O=C(OC1CN2CCC1CC2)c1ccc(Cl)cc1", "note": "(stereo unspecified)", "activation": "inactive: 1.08%"}, {"molecule": "O=[As](O)(c1cccc(O)c1)c1cccc(O)c1", "activation": "inactive: -0.777%"}, {"molecule": "Cc1cccc(OCC(=O)OC2CN3CCC2CC3)c1", "note": "(stereo unspecified)", "activation": "inactive: -0.204%"}, {"molecule": "CCCOP(=S)(Nc1nc(N)cc(=O)[nH]1)OCCC", "activation": "inactive: -0.028%"}, {"molecule": "Nc1cccc2c([As](=O)(O)O)cccc12", "activation": "inactive: 9.05%"}, {"molecule": "Cc1ccc(NCCc2c([N+](=O)[O-])cc([N+](=O)[O-])cc2[N+](=O)[O-])cc1", "activation": "inactive: -1.71%"}, {"molecule": "COc1cc(C2NCCC3(OCCO3)C2(C)C)cc(OC)c1OC", "note": "(stereo unspecified)", "activation": "inactive: 4.49%"}, {"molecule": "CCOP(=O)(Nc1cccc2ccccc12)OCC", "activation": "inactive: 0.794%"}, {"molecule": "CS(=O)(=O)c1cc([N+](=O)[O-])c2no[n+]([O-])c2c1", "activation": "inactive: -1.29%"}, {"molecule": "CCOP1(=S)c2c(C)nn(CCC#N)c2N=C(c2ccccc2F)N1C", "note": "(stereo unspecified)", "activation": "inactive: 0.683%"}, {"molecule": "O=P(Nc1nccs1)(c1ccccc1)c1nc2ccccc2s1", "note": "(stereo unspecified)", "activation": "inactive: -0.666%"}, {"molecule": "O=P(Nc1nccs1)(Oc1ccccc1)Oc1ccccc1", "activation": "inactive: -2.47%"}, {"molecule": "O=C(O)COc1ccc([As](=O)(O)O)cc1[N+](=O)[O-]", "activation": "inactive: -1.31%"}, {"molecule": "Nc1ccccc1[As](=O)(O)c1ccccc1", "activation": "inactive: 2.22%"}, {"molecule": "NC(=O)Nc1ccc([As](=O)(O)O)cc1", "activation": "inactive: 2.34%"}, {"molecule": "O=[N+]([O-])c1ccc2c(c1)nnn2O", "activation": "inactive: -0.514%"}, {"molecule": "N#CCCN(C(=O)COC(=O)C(O)(c1ccccc1)c1ccccc1)c1ccc(F)cc1", "activation": "inactive: -0.048%"}, {"molecule": "CCOP1(=S)c2c(C)nn(CCC#N)c2N=C(c2ccc(F)cc2)N1C", "note": "(stereo unspecified)", "activation": "inactive: 1.01%"}, {"molecule": "CN(C(=O)Cc1ccccc1)[C@@H]1CC[C@]2(CCCO2)C[C@H]1N1CCCC1", "activation": "inactive: -0.805%"}, {"molecule": "Cc1nn(-c2ccccc2)c2c1P(=O)(N1CCOCC1)N(C)C(c1ccccc1)=N2", "note": "(stereo unspecified)", "activation": "inactive: 1.9%"}, {"molecule": "Cc1ccc(C(=O)OC2CN3CCC2CC3)cc1", "note": "(stereo unspecified)", "activation": "inactive: -1.05%"}, {"molecule": "CC1CCC(C(C)C)C(OP(=O)(Nc2ccccn2)c2ccccc2)C1", "note": "(stereo unspecified)", "activation": "inactive: -0.418%"}, {"molecule": "O=C(/C=C/c1ccccc1)OC1CN2CCC1CC2", "note": "(stereo unspecified)", "activation": "inactive: 2.31%"}, {"molecule": "CN(C)C1(CNC(=O)c2ccc(S(C)(=O)=O)cc2)CCCCC1", "activation": "inactive: -1.56%"}, {"molecule": "O=P1(Nc2ncccn2)COc2ccccc2OC1", "activation": "inactive: -1.33%"}, {"molecule": "NS(=O)(=O)c1cccc(NC(=O)COC(=O)C(O)(c2ccccc2)c2ccccc2)c1", "activation": "inactive: 0.276%"}, {"molecule": "O=P1(Nc2ccc(Br)cn2)COc2ccccc2OC1", "activation": "inactive: 1.93%"}, {"molecule": "O=[As](O)(c1cccs1)c1cccs1", "activation": "inactive: -3.09%"}, {"molecule": "Cc1ccc(OCC(=O)OC2CN3CCC2CC3)cc1", "note": "(stereo unspecified)", "activation": "inactive: 1.89%"}, {"molecule": "Nc1cccc([As](=O)(O)c2ccccc2)c1", "activation": "inactive: 1.21%"}, {"molecule": "CCOP(=O)(Nc1ccc(C)cn1)OCC", "activation": "inactive: 0.967%"}, {"molecule": "CCC1=CC2Cc3nc4ccc(Cl)cc4c(N)c3C(C1)C2", "note": "(stereo unspecified)", "activation": "inactive: -0.107%"}, {"molecule": "O=P1(Nc2ccccn2)COc2ccccc2OC1", "activation": "inactive: 1.52%"}, {"molecule": "CCOP(=O)(NC(=NC(C)c1ccccc1)NC(C)c1ccccc1)OCC", "note": "(stereo unspecified)", "activation": "inactive: -0.38%"}, {"molecule": "Clc1n[nH]nc1-c1nn[nH][15n]1", "activation": "inactive: -0.25%"}, {"molecule": "CC(C)(C)C(=O)NC(Sc1ncccn1)C(Cl)(Cl)Cl", "note": "(stereo unspecified)", "activation": "inactive: -0.64%"}, {"molecule": "COc1ccccc1CNC(=O)COC(=O)C(O)(c1ccccc1)c1ccccc1", "activation": "inactive: 1.02%"}, {"molecule": "O=[As](O)(c1ccccc1Br)c1ccccc1Br", "activation": "inactive: -0.491%"}, {"molecule": "CN(C(=O)Cc1ccc(Cl)c(Cl)c1)[C@@H]1CCCC[C@H]1N1CCCC1", "activation": "inactive: 2.41%"}, {"molecule": "CC(C)/C=N\\N=C(\\N)N[N+](=O)[O-]", "activation": "inactive: -1.36%"}]}]}
